Source: ChEMBL document CHEMBL1138475, “Conformationally constrained fatty acid ethanolamides as cannabinoid and vanilloid receptor probes” (J Med Chem, 2009)

The chains behind the UniProt entries cited, without tags or fusion partners.
UniProt P47746, whole entry: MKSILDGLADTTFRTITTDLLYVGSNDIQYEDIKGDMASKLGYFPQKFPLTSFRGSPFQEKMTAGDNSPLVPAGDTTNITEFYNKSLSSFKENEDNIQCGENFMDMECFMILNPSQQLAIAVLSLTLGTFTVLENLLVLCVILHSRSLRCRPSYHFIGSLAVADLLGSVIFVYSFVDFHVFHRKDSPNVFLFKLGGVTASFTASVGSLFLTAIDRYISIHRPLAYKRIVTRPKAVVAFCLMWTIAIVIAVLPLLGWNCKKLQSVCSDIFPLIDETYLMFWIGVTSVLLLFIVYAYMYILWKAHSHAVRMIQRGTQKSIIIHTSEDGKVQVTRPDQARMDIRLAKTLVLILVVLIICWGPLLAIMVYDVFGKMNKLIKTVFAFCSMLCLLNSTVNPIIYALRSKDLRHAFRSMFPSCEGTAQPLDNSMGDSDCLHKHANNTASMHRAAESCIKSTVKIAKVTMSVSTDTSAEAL
UniProt P34972, whole entry: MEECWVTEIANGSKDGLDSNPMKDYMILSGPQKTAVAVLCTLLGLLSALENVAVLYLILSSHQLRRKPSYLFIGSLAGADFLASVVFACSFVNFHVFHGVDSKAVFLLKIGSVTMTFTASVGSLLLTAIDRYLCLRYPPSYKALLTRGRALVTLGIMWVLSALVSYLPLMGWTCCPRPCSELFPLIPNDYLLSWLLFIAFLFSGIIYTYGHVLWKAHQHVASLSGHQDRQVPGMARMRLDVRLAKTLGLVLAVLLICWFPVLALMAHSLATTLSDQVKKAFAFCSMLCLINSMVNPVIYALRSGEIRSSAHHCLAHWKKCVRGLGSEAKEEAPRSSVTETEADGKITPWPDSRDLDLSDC

Assays:
[1] = biological target: Cannabinoid receptor 1 (Mus musculus, UniProt P47746); test: Agonist activity at CB1 receptor expressed in mouse brain membrane by [35S]GTPgammaS binding assay; type: functional, cell membranes
Method in brief: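 Mouse brain membranes (10 µg/mL) preincubated 30 min at 30 °C with adenosine deaminase 0.5 U/mL, in Tris buffer with MgCl2, EDTA, NaCl, DTT, 0.1% BSA, 0.1 nM [35S]GTPγS, 30 µM GDP; compounds 60 min at 30 °C. Nonspecific with 30 µM GTPγS. Filtration, scintillation counting. 0.1% DMSO vehicle. Basal subtracted; EC50 and Emax by sigmoid nonlinear regression.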

[2] = biological target: Cannabinoid receptor 2 (Homo sapiens, UniProt P34972); test: Displacement of [3H]CP-55940 from human recombinant CB2 receptor expressed in HEK293 cell membrane; type: cell membranes
Method in brief: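 Membranes from HEK-293 cells expressing human CB2 (Bmax 4.7 pmol/mg) incubated 90 min at 30 °C with 0.14 nM [3H]CP-55,940 and increasing test compound. Nonspecific binding with 10 µM WIN 55212-2. Ki from IC50 by Cheng-Prusoff; mean ± SEM, n ≥ 3.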

CCCCC/C=C\C/C=C\C/C=C\C/C=C\CCCC(=O)NCCO [ANANDAMIDE]
EC50 [1]: 360 nM
Ki [2]: 168 nM
